Values quoted from earlier work in US10239871B2, “Compounds and methods for regulating integrins” (ADHAERE PHARMACEUTICALS, INC., priority 2012, dated 2019).

Test system: patients
Settings: human, in vivo; cited from earlier work

Substance: Trastuzumab: humanized monoclonal antibody against the HER2 tyrosine kinase receptor
- incidence of LVEF decrease or asymptomatic heart failure: ~7%
